According to patent publication US9381683B2, “Films and methods of manufacture” (priority 2011, dated 2016):

Assay: Release of gentamicin from polymer sleeves on metal plates implanted in sheep
Conditions: within 24 hours after insertion, sleeve with 10% gentamicin, gentamicin exposed to the sleeve surface

Substance: gentamicin
- gentamicin released into the adjacent tissue: Approximately 50%
